Bioassay records: PubChem BioAssay, Broad Institute
Only some compounds are listed: those with a hit (about 1.3% of all), similar ones and a draw of the others.
EWS-Fli block: EWS/Fli transcriptional activity inhibition; AID 651661; inhibition, % at 12.6 µM; A673 NR0B1-luciferase reporter, viability-normalised; 0.67% of 350,000 active;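 active means mean inhibition of at least 50% after viability correction, with every replicate also passing that limit; inconclusive means mean reaches 50% but only one of two replicates passes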;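 further: firefly luciferase signal divided by Alamar Blue viability fluorescence both relative to DMSO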
PglD inh: PglD (C. jejuni) enzyme inhibition. purified PglD enzyme, DTNB colorimetric CoA detection. inhibition, % at 12.5 µM. 0.098% of 360,000 active; in the data active means inhibition above about 16%, passing the limit was not always enough; inconclusive means no clear call, values can overlap the other calls
miR-122 sensor: miR-122 inhibition in Huh7 cells. Huh7 miR-122 Renilla luciferase sensor, 48 h; neutral wells = 0, positive control = 100. activation (reporter increase), % at 12.5 µM. 0.3% of 340,000 active;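 active means mean replicate activation score at least 90 and every replicate individually at or above 90; inconclusive means only one of the two criteria met; inactive means neither criterion met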;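 further: higher luciferase means less miR-122 activity so hits act as miR-122 inhibitors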
UUG fidelity: modulators of yeast start codon fidelity, primary screen, whole organism, S. cerevisiae, single point, plate reader | AID 602363, 2012 | S. cerevisiae UUG-firefly luciferase reporter, luminescence/redox ratio | activity score, % at 18.7 µM | hit rate 0.13% among 350,000;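 active = replicate mean at a twofold rise or more, about +100% in these data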;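 also: firefly luciferase made from a UUG start codon reports start codon fidelity; reporter light over untreated wells divided by growth signal over untreated wells; some hits fall short of that in this replicate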
LGR2 inh: Drosophila LGR2 receptor signaling inhibition. inhibition, % at 9.99 µM. HEK293 LGR2, CRE-luciferase, bursicon-stimulated, 4 h. 0.35% of 380,000 active;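 active means drop in luminescence signal, shown as inhibition above about 50% in the replicate tests, limit read from the data, passing the limit was not always enough; inconclusive means probably only some replicates passing the limit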;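 further: agonist challenge used bursicon conditioned medium at about half maximal strength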
CFTR F508del cor: CFTR F508del correction in bronchial cells | CFBE cells, YFP halide quenching; stimulated with forskolin plus potentiator P3; % fluorescence drop versus neutral controls | activity (quench increase), % at 7.58 µM | 0.36% of 350,000 active | AID 720511;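 active means mean added fluorescence quench of at least 8% versus neutral control, with both replicates also reaching 8%; inconclusive means only one of the mean or replicate conditions met; inactive means mean below 8% and not both replicates reaching 8%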;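 further: cells transiently co-express mutant CFTR-F508del with the halide-sensitive YFP; corrector assay measuring rescue of mutant channel to the surface after 24 h compound exposure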
* marks the source's active call; other numbers are inactive results; ? = inconclusive; . = no result given; [ ] = another dose, or the depositor's remark.

Below each compound: EWS-Fli block, PglD inh, miR-122 sensor, UUG fidelity, LGR2 inh, CFTR F508del cor
[1] C#CCN(C[C@@H]1[C@@H](OC(=O)NCc2ccco2)[C@@H](OC(=O)NCc2ccco2)Cn2c(=O)ccc(=O)n21)S(=O)(=O)c1ccc(C)cc1
→ 26.4, 1.1, -5.2, 10.8, ?, -0.3
[2] CCCCCCNC(=O)O[C@H]1Cn2c(=O)ccc(=O)n2[C@@H]2CN(S(=O)(=O)c3ccc(C)cc3)C[C@]12O
→ 70.5*, -0.6, -28.2, -8.3, 37.7, -4.8
[3] C#CCN(C[C@@H]1[C@@H](OC(=O)NCCCCCC)[C@@H](OC(=O)NCCCCCC)Cn2c(=O)ccc(=O)n21)S(=O)(=O)c1ccc(C)cc1
→ 66.5*, 2.4, -21.5, -12.8, ?, -7.1
[4] CCOc1ccc(CCN2C(=O)C(=O)N([C@@H](Cc3ccccc3)CN3CCC[C@H]3CN3C(=O)C(=O)NC[C@@H]3CC(C)C)C[C@@H]2Cc2ccc(O)cc2)cc1
→ 7.2, ., ., ., -19.6, 0.6
[5] O=C(COc1ncnc2ccccc12)NC1CCCC1
→ -1.4, -2.5, -7.0, -9.4, -8.4, 0.4
[6] CC(=O)c1cccc(N(CC(=O)NCC2CCCO2)C(=O)CCC(=O)Nc2cc(C)on2)c1 (configuration not stated)
→ ., -1.3, -9.8, -14.2, ., .
[7] COc1ccccc1/C=C1\SC(=S)N(CC(=O)Nc2nnc(C)s2)C1=O
→ 60.0*, ., ., ., -7.2, .
[8] CCN(CC)c1ccc(C2C(C(=O)OCCOC)=C(C)NC3=C2C(=O)CC(C)(C)C3)cc1 (configuration not stated)
→ ., 2.0, 95.1*, 4.4, ., .
[9] CCCOC(=O)C1=C(C)NC2=C(C(=O)CC(C)(C)C2)C1c1ccc(N(C)C)cc1 (configuration not stated)
→ ., 0.4, 14.7, -0.6, ., .
[10] Cc1csc(NC(=O)c2ccc(N3CCCC3=O)cc2)n1
→ 46.9, ., ., ., 90.5*, -2.4

Ordered by molar mass (descending): part of the list above.
Below each compound: EWS-Fli block, PglD inh, miR-122 sensor, UUG fidelity, LGR2 inh, CFTR F508del cor
[4] CCOc1ccc(CCN2C(=O)C(=O)N([C@@H](Cc3ccccc3)CN3CCC[C@H]3CN3C(=O)C(=O)NC[C@@H]3CC(C)C)C[C@@H]2Cc2ccc(O)cc2)cc1
→ 7.2, ., ., ., -19.6, 0.6
[3] C#CCN(C[C@@H]1[C@@H](OC(=O)NCCCCCC)[C@@H](OC(=O)NCCCCCC)Cn2c(=O)ccc(=O)n21)S(=O)(=O)c1ccc(C)cc1
→ 66.5*, 2.4, -21.5, -12.8, ?, -7.1
[5] O=C(COc1ncnc2ccccc12)NC1CCCC1
→ -1.4, -2.5, -7.0, -9.4, -8.4, 0.4

(further entries)
Below each compound: EWS-Fli block, PglD inh, miR-122 sensor, UUG fidelity, LGR2 inh, CFTR F508del cor
[11] Cc1ccc(N=Nc2cc(C)ccc2N)cc1
→ 43.3, ., ., ., 67.8*, -2.7
[12] CC(=O)Nc1ccc2c(c1)[nH]c(=O)c1ccccc12
→ -40.0, ., 3.0, ., -8.4, -1.8
[13] CN(C)C(=O)C(CCN1CCC(O)(c2ccc(Cl)cc2)CC1)(c1ccccc1)c1ccccc1
→ 16.4, -1.2, -7.4, -5.6, 34.2, 10.9*
[14] CN(C)c1ccc(NC(=O)CN2CCC(O)(c3ccccc3)CC2)cc1
→ 0.0, ., ., ., 28.8, 1.1
[15] C/C(=N\NC(=O)c1c[nH]c2ccccc12)c1ccc2c(c1)OCO2
→ -10.4, ., ., ., -20.0, 4.0
[16] CC(C)(c1ccccc1)c1ccc(OCC(O)CNC2CCN(Cc3ccccc3)CC2)cc1 (configuration not stated)
→ 25.5, 4.4, ., -14.9, 104.1*, -6.8
[17] COC1(OC)C=CC(=O)C=C1NC(=O)c1ccccc1OC(C)=O
→ 55.2*, ., ., -18.5, 24.6, -3.2
[18] COc1ccc(C(C)(C)C)cc1NC(=O)c1[nH]c(C)c(C(C)=O)c1C
→ -24.8, 1.9, 5.3, -6.4, 5.1, -0.2
[19] COc1ccc(OC)c(CN2C(=O)c3ccccc3C2c2nnnn2-c2ccc3c(c2)OCCO3)c1 (configuration not stated)
→ 51.9*, ., ., ., -9.8, -4.3
[20] CCC(=O)N1[C@H](CO)[C@@H](c2ccc(-c3ccccc3C)cc2)C12CN(C(C)=O)C2
→ 2.3, ., ., ., -1.4, 0.2
[21] O=C(CCl)N(CCc1ccccc1)CCc1ccccc1
→ 59.1*, -0.4, -20.0, -15.5, -0.7, 0.6
[22] O=C(CCl)N(c1ccccc1)c1ccccc1
→ 39.8, ., ., ., 11.8, -0.9
[23] Cc1ccc(-n2nccc2-c2nn(-c3cccc(C(F)(F)F)c3)c(=O)n(C)c2=O)cc1
→ 15.2, -7.6, -6.6, -9.3, 25.2, 0.3
[24] Cn1c(C(=O)c2ccccc2[N+](=O)[O-])nc2ccccc21
→ 4.5, ., ., ., -19.5, 8.6*
[25] Cn1c(C(=O)c2ccccc2)nc2ccccc21
→ -36.8, -6.4, 4.7, -0.9, -13.2, -1.6
[26] C[C@@H]1CN([C@@H](C)CO)C(=O)c2cccc(NC(=O)NC3CCCCC3)c2O[C@@H]1CN(C)S(=O)(=O)c1cn(C)cn1
→ -1.9, -0.6, -1.6[16.7 µM], 0.0, -17.2, -1.3
[27] O=C(c1ccccc1)C1CCN(C(=O)c2ccco2)CC1
→ -6.5, -4.5, 1.1, -8.5, 10.0, -0.4
[28] COc1ccccc1NC(=O)/C(N=Nc1ccc(C)c(S(=O)(=O)Nc2ccccc2Cl)c1)=C(\C)O
→ -12.3, 3.1, 4.1, -7.9, 9.7, 6.8
